{
  "source": "patent US20250229073A1",
  "about": "“TRANSIENT DISRUPTION OF THE NEUROVASCULAR BARRIER OF A HUMAN AND USES THEREOF FOR TREATING AMYOTROPHIC LATERAL SCLEROSIS” (SORBONNE UNIVERSITE, priority 2022, published 2025)",
  "origin": "cited, not measured here",
  "system": "patients suffering from ALS",
  "conditions": "clinical, literature; cited from earlier work",
  "data": [
    {"molecule": "Nc1nc2ccc(OC(F)(F)F)cc2s1", "note": "[riluzole, 2-amino-6-trifluoromethoxybenzothiazole]", "values": [
      {"measurement": "survival of patients suffering from ALS", "value": "prolongs the survival"}
    ]}
  ]
}
